Binding of CDR-mutated scFvs to a peptide of the spike HR2 region

Binding partner: SARS-CoV-2 spike HR2 peptide, sequence PDVDLGDISGINAS.

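The variants were designed computationally from a first round of random CDR variants and then made and measured. Group labels follow the data file (Ctrl: baseline library sampled from a position-specific scoring matrix, with some repeated check sequences; Rand: our label for a block that the file lists under HC and that is probably the random mutants of the ten best first-round binders; En: ensemble of fine-tuned language models; GP: Gaussian process model; GPLM: also part of the Gaussian process libraries; HC: hill climbing; Gen: genetic algorithm; Gibbs: Gibbs sampling; a sequence that several methods proposed may carry one label only). Affinity was read by AlphaSeq, a pooled yeast mating assay with surface-displayed partners. Binding brings cells together so that they mate, and sequencing counts the barcode pairs among the diploids. A regression on co-assayed BCL2-family reference pairs converts the normalised counts of each replicate to an apparent Kd. There are six technical replicates.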

The variants keep the light chain, the linker and the frameworks of Ab-14 (scFv order VH, a 15-residue (Gly4Ser)3 linker, VL).
VH: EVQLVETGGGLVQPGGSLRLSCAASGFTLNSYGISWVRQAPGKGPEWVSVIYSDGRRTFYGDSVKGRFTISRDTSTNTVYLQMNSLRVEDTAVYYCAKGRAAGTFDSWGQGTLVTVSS
VL: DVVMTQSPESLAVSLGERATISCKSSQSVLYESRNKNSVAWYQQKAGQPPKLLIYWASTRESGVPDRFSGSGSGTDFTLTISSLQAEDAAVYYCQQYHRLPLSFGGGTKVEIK

Each variant is given by its three heavy chain CDRs, as the data file delimits them; those of the parent are GFTLNSYGIS, VIYSDGRRTFYGDSVK, GRAAGTFDS. Scale: log10 of Kd in nM, estimated from mating counts; low values are strong binders. Where no diploid with the target was found in that replicate, the entry reads "ND": below detection, most likely a poor binder, though not proof of it. The authors averaged sequences with at least three values out of six and counted those with two or fewer as poor binders. Values of this round are not directly comparable with the first-round values of the same sequences. Empty control strains, which show no peptide, gave a signal in 1% of pairings with all heavy chain designs; the median was 2.08 and 95% of these signals were weaker than 0.84. No background was subtracted.

| CDR-H1 | CDR-H2 | CDR-H3 | group | log10 Kd (nM) by replicate |
|---|---|---|---|---|
| GFTLNSYGVS | VIYSDGVRTQYIDSVK | GRAATTFDS | Ctrl | ND ND ND ND ND ND |
| GFTLNSYGIS | VIYSDGRKTFYDDSVK | GKLAGTFDS | GPLM_HC | ND ND ND ND ND ND |
| GFDLNEYGIS | VIYADGVRTGYQQQVK | GYHSFGLNQ | En_Gibbs | 2.15 ND ND ND 3.08 ND |
| GFSLNSYGIS | VIYSDGRRTFYADDVK | GNAAGTFDN | GP_Gen | 0.08 -0.06 -0.04 0.57 -0.02 0.43 |
| GFTLNNYGIS | VIYSDGRRTWYGDSVK | GREAGTFDS | Ctrl | ND ND ND ND 0.39 ND |
| GFTLNSYGIS | VIYSDGCRTAYGDSVK | GRIAGTFDS | Ctrl | 1.85 1.96 0.37 ND 1.65 1.99 |
| KFNLNSYGIS | VIYSDGRRTFYADSVK | GRNAGTFDS | GP_Gen | 2.47 1.71 ND ND 2.03 3.19 |
| GFELNSYGIS | VIYSDGRRTFYQDSVK | GDAAGTFDS | GP_Gen | ND ND ND ND ND ND |
| GFNLGEYGIS | VIYADGRRTFYKNSVK | GEFIVMGVD | En_Gibbs | ND ND ND ND ND ND |
| GFDLNEYGIS | VIYADGKRTAYADDVK | GEVAGTFDQ | En_Gen | -0.78 -0.57 -0.57 -1.02 -0.40 -0.98 |
| GFGLNEYGIS | VIYSDGRRTFYGDSVK | GSAAGTFDS | GP_Gibbs | ND 1.66 0.59 -0.63 1.23 ND |
| GFNLNSYGIS | VIYSDGRRTAYGDRVK | GRQAGTFDS | GP_Gibbs | ND -0.11 ND 0.41 ND 0.81 |
| GFQLNSYGIS | VIYSDGRRTFYGDQVK | GRAAGTFDS | GP_HC | ND ND ND ND ND ND |
| DFNLNEYGIS | VIYADGERASYLDKVK | GQISGTFDT | En_Gibbs | 0.43 1.01 0.14 0.68 0.40 0.72 |
| GFSLNSYGIS | VIYADGRRTFYGDDVK | GKAAGTFDS | GP_Gibbs | 0.00 -0.67 ND ND 0.38 -1.10 |
| GFDLNEYGIS | VIYADGMRTAYADDVK | GGNAGTFDI | En_Gen | -0.53 -0.46 -0.51 -0.86 -0.25 -0.39 |
| GFTLNDYGIS | VIYSDGRRTQYIDSVK | GRALGTFDS | Rand | ND ND ND ND ND ND |
| GFSLNSYGIS | VIYSDGRRTFYCDSVK | GKAAGTFDS | GPLM_Gen | ND 2.26 1.57 1.53 1.41 3.38 |
| KFSLNCYGIS | VIYSDGRRTFYGDSVK | GRTAGTFDS | GP_Gibbs | ND ND ND ND ND ND |
| GFTLNSYGIS | VIYSDGQRTAYGGSVK | GRAAGTFDS | Ctrl | ND ND ND ND ND ND |
| HFQLNSYGIS | VIYSDGRRTFYADSVK | GRTAGTFDS | GPLM_Gibbs | 0.81 0.63 1.85 1.10 1.33 1.35 |
| GMDLEEYGIS | VIYADGVRARYVNDVK | GQVDAILVV | En_Gibbs | ND ND ND ND ND ND |
| GFDLNEYGIS | VIYADGVRTAYANDVK | GEVAGTFDV | En_Gen | -0.45 -0.40 -0.69 -0.52 -0.46 -0.33 |
| KFDLNSYGIS | VIYSDGRRTFYGDSVK | GETAGTFDS | GP_Gen | 1.42 1.66 1.68 ND 2.13 1.82 |
| GFDLNEYGIS | VIYADGRRTFYSDSVK | GEAAGTFDV | En_HC | -0.43 -0.63 -0.70 -0.37 -0.57 -0.59 |
| GFDLTEYGIS | VIYADGRRTEYVDDVK | GQTAGHFLD | En_Gibbs | ND ND ND ND ND ND |
| GFDLEEYGIS | VIYADGMRTAYADSVK | GNVAGTFDI | En_Gen | -0.92 -0.40 -0.65 -0.72 -0.89 -0.27 |
| GFDLNEYGIS | VIYADGRRQAVVQNVK | GKINVVDSV | En_Gibbs | ND ND ND ND ND ND |
| GFDLDEYGIS | VIYADGKRTAYTDSVK | GQNAGTFDV | En_Gen | 0.05 -0.33 -0.56 -0.11 -0.59 -0.36 |
| GFNLNSYGIS | VIYSDGRRTFYGDSVK | GRGAGTFDS | Ctrl | 1.78 1.67 1.42 3.15 2.43 2.31 |
| GFELNEYGIS | VIYSDGYRTFYGDSVK | GRAAGTYPS | Ctrl | ND ND ND ND ND ND |
| GFDLNEYGIS | VIYADGMRTAYADSVK | GENAGTFVM | En_Gen | ND 1.54 ND 2.18 ND 1.99 |
| GFNLDEYGIS | VIYADGMRTAYADSVK | GNVAGTFDQ | En_Gen | -0.53 -0.57 -0.63 -0.75 -0.63 -0.25 |
| GFTLNSYGIS | VIYSDGRRTFYDDSVK | GRKAGTFHS | Ctrl | ND ND ND ND ND ND |

The first 5 entries again:

CDR-H1	CDR-H2	CDR-H3	group	log10 Kd (nM) by replicate
GFTLNSYGVS	VIYSDGVRTQYIDSVK	GRAATTFDS	Ctrl	ND ND ND ND ND ND
GFTLNSYGIS	VIYSDGRKTFYDDSVK	GKLAGTFDS	GPLM_HC	ND ND ND ND ND ND
GFDLNEYGIS	VIYADGVRTGYQQQVK	GYHSFGLNQ	En_Gibbs	2.15 ND ND ND 3.08 ND
GFSLNSYGIS	VIYSDGRRTFYADDVK	GNAAGTFDN	GP_Gen	0.08 -0.06 -0.04 0.57 -0.02 0.43
GFTLNNYGIS	VIYSDGRRTWYGDSVK	GREAGTFDS	Ctrl	ND ND ND ND 0.39 ND

Source: Li et al. 2023 (doi:10.1038/s41467-023-39022-2), MIT Lincoln Laboratory and A-Alpha Bio; data file from the FLAb repository.